Experimental data as given in patent publication US20110223597A1 (priority 2010, published 2011).

Tests used:
Assay in all cases: in vitro
[1] = system: UGT1A4(*1/*3)/UGT2B10(*1/*1); conditions: human, pH 7.5, KM, OLZ-10-N-glucuronide isomer 1 formation; HLM UGT1A4(*1/*3)/UGT2B10(*1/*1)
[2] = system: UGT1A4(*1/*1)/UGT2B10(*1/*1); conditions: human, pH 7.5, KM, OLZ-10-N-glucuronide isomer 2 formation; HLM UGT1A4(*1/*1)/UGT2B10(*1/*1)
[3] = system: UGT2B10(*2/*2)/UGT1A4(*1/*1); conditions: human, pH 7.5, KM, OLZ-10-N-glucuronide isomer 1 formation; single HLM UGT2B10(*2/*2)/UGT1A4(*1/*1)
[4] = system: UGT1A4(*3/*3)/UGT2B10(*1/*1); conditions: human, pH 7.5, KM, OLZ-10-N-glucuronide isomer 1 formation; HLM UGT1A4(*3/*3)/UGT2B10(*1/*1)
[5] = system: UGT2B10(*1/*2)/UGT1A4(*1/*1); conditions: human, pH 7.5, KM, OLZ-10-N-glucuronide isomer 1 formation; HLM UGT2B10(*1/*2)/UGT1A4(*1/*1)

Compound `Cc1cc2c(s1)Nc1ccccc1N=C2N1CCN(C)CC1` [OLZ, Olanzapine] has a Km at 2 h [1] of 328 ± 33 µM, a Km at 2 h [2] of 311 ± 27 µM and a Km at 2 h [3] of 273 µM. For the same compound, the Km at 2 h [4] was 268 ± 41 µM and the Km at 2 h [5] was 302 ± 50 µM.
